# Permeability data for macrocyclic peptides

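Lipid, pH, incubation time, direction and concentration are not recorded in the data file. The list need not hold all peptides of the study. Entries at the database's floor value (log10 P of -10) are not listed.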

PAMPA is the parallel artificial membrane permeability assay, which has no cells and reads passive diffusion. Permeability is in 10^-6 cm/s, converted from the database's log10 values; higher is more permeable.

For CCCN1CC(=O)N[C@H](CC(C)C)C(=O)N(Cc2ccccc2)CC(=O)N2CCC[C@H]2C(=O)N[C@@H](CC(C)C)C(=O)N[C@@H](Cc2ccccc2)C(=O)N2CCC[C@H]2C1=O the data give PAMPA 0.98 × 10^-6 cm/s. Listed for CC(C)C[C@@H]1NC(=O)[C@H](CC(C)C)N(C)C(=O)[C@@H](C)N(C)C(=O)[C@H]2CCCN2C(=O)[C@H](Cc2ccccc2)NC(=O)[C@H](CC(C)C)N(C)C(=O)[C@@H]2CCCN2C1=O: PAMPA 4.6 × 10^-6 cm/s. The entry for CCCN1CC(=O)N[C@H](CC(C)C)C(=O)N[C@@H](CC(C)C)C(=O)N2CCC[C@@H]2C(=O)N[C@@H](CC(C)C)C(=O)N[C@@H](Cc2ccccc2)C(=O)N2CCC[C@@H]2C1=O lists PAMPA 0.78 × 10^-6 cm/s. Listed for CC(C)C[C@@H]1C(=O)N[C@@H](Cc2ccccc2)C(=O)N(C)[C@@H](C)C(=O)N(C)[C@@H](CC(C)C)C(=O)N[C@@H](Cc2ccccc2)CC(=O)N2CCC[C@H]2C(=O)N1C: PAMPA 13 × 10^-6 cm/s.

CC(C)C[C@@H]1NC(=O)[C@H](CC(C)C)N(C)C(=O)[C@H](C)NC(=O)[C@H](Cc2ccccc2)NC(=O)CN(Cc2ccccc2)C(=O)[C@H]2CCCN2C1=O has PAMPA 1.8 × 10^-6 cm/s. CCCN1CC(=O)N(C)[C@@H](CC(C)C)C(=O)N(Cc2ccccc2)CC(=O)N2CCC[C@@H]2C(=O)N(C)[C@H](CC(C)C)C(=O)N[C@@H](Cc2ccccc2)C(=O)N2CCC[C@@H]2C1=O is reported with PAMPA 4.9 × 10^-6 cm/s. CC(C)C[C@H]1NC(=O)[C@@H](C)NC(=O)[C@H](Cc2ccccc2)NC(=O)[C@@H](CC(C)C)NC(=O)[C@@H]2CCCN2C(=O)[C@@H](CC(C)C)NC1=O is reported with PAMPA 0.2 × 10^-6 cm/s. Listed for CC(C)C[C@@H]1C(=O)N[C@H](CC(C)C)C(=O)N2CCC[C@H]2C(=O)N[C@H](CC(C)C)C(=O)N[C@@H](Cc2ccccc2)C(=O)N2CCC[C@@H]2C(=O)N[C@@H](Cc2ccccc2)CC(=O)N1C: PAMPA 3.2 × 10^-6 cm/s.

Listed for CC(C)C[C@@H]1NC(=O)[C@H](C)N(C)C(=O)[C@@H]2CCCN2C(=O)[C@H](Cc2ccccc2)NC(=O)[C@H](CC(C)C)N(C)C(=O)[C@@H]2CCCN2C(=O)[C@@H](CC(C)C)NC1=O: PAMPA 4.7 × 10^-6 cm/s. CC(C)C[C@@H]1NC(=O)[C@H](C)N(C)C(=O)[C@H]2CCCN2C(=O)[C@H](Cc2ccccc2)NC(=O)[C@H](CC(C)C)NC(=O)[C@@H]2CCCN2C(=O)C[C@H](Cc2ccccc2)NC1=O is reported with PAMPA 0.83 × 10^-6 cm/s. Listed for CCCN1CC(=O)N[C@@H](CC(C)C)C(=O)N[C@@H](Cc2ccccc2)CC(=O)N2CCC[C@H]2C(=O)N(C)[C@@H](CC(C)C)C(=O)N[C@@H](Cc2ccccc2)C(=O)N2CCC[C@H]2C1=O: PAMPA 1.7 × 10^-6 cm/s. The entry for CC(C)C[C@@H]1NC(=O)[C@@H](C)NC(=O)[C@H](Cc2ccccc2)NC(=O)CN(Cc2ccccc2)C(=O)[C@@H]2CCCN2C(=O)[C@@H](CC(C)C)NC1=O lists PAMPA 0.48 × 10^-6 cm/s.

The entry for CC(C)C[C@@H]1NC(=O)C[C@H](Cc2ccccc2)NC(=O)[C@H]2CCCN2C(=O)[C@H](Cc2ccccc2)NC(=O)[C@H](CC(C)C)N(C)C(=O)[C@H]2CCCN2C(=O)CN(Cc2ccccc2)C1=O lists PAMPA 1.8 × 10^-6 cm/s. CC(C)C[C@@H]1C(=O)N[C@@H](Cc2ccccc2)C(=O)N2CCC[C@H]2C(=O)N(C)[C@H](C)C(=O)N[C@H](CC(C)C)C(=O)N[C@@H](Cc2ccccc2)CC(=O)N2CCC[C@@H]2C(=O)N1C has PAMPA 0.66 × 10^-6 cm/s. For CC(C)C[C@@H]1C(=O)N(C)[C@@H](CC(C)C)C(=O)N2CCC[C@H]2C(=O)N(C)[C@@H](CC(C)C)C(=O)N[C@@H](Cc2ccccc2)C(=O)N2CCC[C@@H]2C(=O)N[C@H](C)C(=O)N1C the data give PAMPA 5 × 10^-6 cm/s. For CC(C)C[C@@H]1NC(=O)[C@@H](C)N(C)C(=O)[C@@H]2CCCN2C(=O)[C@H](Cc2ccccc2)NC(=O)[C@@H](CC(C)C)NC(=O)[C@@H]2CCCN2C(=O)[C@@H](CC(C)C)N(C)C1=O the data give PAMPA 0.85 × 10^-6 cm/s.

CC(C)C[C@@H]1NC(=O)[C@H](C)N(C)C(=O)[C@H](Cc2ccccc2)NC(=O)[C@H](CC(C)C)N(C)C(=O)[C@H]2CCCN2C(=O)CN(Cc2ccccc2)C1=O is reported with PAMPA 2.8 × 10^-6 cm/s. CC(C)C[C@@H]1NC(=O)C[C@H](Cc2ccccc2)NC(=O)[C@H]2CCCN2C(=O)[C@H](Cc2ccccc2)NC(=O)[C@@H](CC(C)C)N(C)C(=O)[C@@H]2CCCN2C(=O)[C@H](CC(C)C)NC1=O is reported with PAMPA 1.4 × 10^-6 cm/s. For CC(C)C[C@@H]1NC(=O)[C@H]2CCCN2C(=O)[C@@H](CC(C)C)NC(=O)[C@@H](CC(C)C)NC(=O)[C@H](C)NC(=O)[C@@H]2CCCN2C(=O)[C@H](Cc2ccccc2)NC1=O the data give PAMPA 0.26 × 10^-6 cm/s. Listed for CCCN1CC(=O)N(C)[C@@H](CC(C)C)C(=O)N(C)[C@@H](CC(C)C)C(=O)N2CCC[C@@H]2C(=O)N[C@@H](CC(C)C)C(=O)N[C@@H](Cc2ccccc2)C(=O)N2CCC[C@H]2C1=O: PAMPA 0.62 × 10^-6 cm/s.

CC(C)C[C@H]1NC(=O)[C@@H]2CCCN2C(=O)C[C@H](Cc2ccccc2)NC(=O)[C@H](CC(C)C)N(C)C(=O)[C@H](C)N(C)C(=O)[C@H]2CCCN2C(=O)[C@H](Cc2ccccc2)NC1=O is reported with PAMPA 0.35 × 10^-6 cm/s. The entry for CC(C)C[C@H]1NC(=O)[C@H](C)N(C)C(=O)[C@H]2CCCN2C(=O)[C@H](Cc2ccccc2)NC(=O)[C@@H](CC(C)C)NC(=O)[C@@H]2CCCN2C(=O)C[C@H](Cc2ccccc2)NC1=O lists PAMPA 0.25 × 10^-6 cm/s. The entry for CC(C)C[C@@H]1NC(=O)[C@H](C)NC(=O)[C@@H]2CCCN2C(=O)[C@H](Cc2ccccc2)NC(=O)[C@H](CC(C)C)NC(=O)[C@@H]2CCCN2C(=O)C[C@H](Cc2ccccc2)NC1=O lists PAMPA 0.32 × 10^-6 cm/s.

2 of these entries, quoted again:

SMILES	PAMPA (10^-6 cm/s)
CC(C)C[C@@H]1NC(=O)[C@H](C)N(C)C(=O)[C@H](Cc2ccccc2)NC(=O)[C@H](CC(C)C)N(C)C(=O)[C@H]2CCCN2C(=O)CN(Cc2ccccc2)C1=O	2.8
CC(C)C[C@H]1NC(=O)[C@H](C)N(C)C(=O)[C@H]2CCCN2C(=O)[C@H](Cc2ccccc2)NC(=O)[C@@H](CC(C)C)NC(=O)[C@@H]2CCCN2C(=O)C[C@H](Cc2ccccc2)NC1=O	0.25

Data: CycPeptMPDB; original report Townsend et al. 2020, doi:10.26434/chemrxiv.13335941.v1.